Results reported in PubChem BioAssay AID1044 (The Scripps Research Institute Molecular Screening Center, 2008).
The list shows a part of the results, in another mix than the full data. The source made the active and inactive calls. Cut-off read from the data, not from the text of the source: active = activation above about 80%; inactive = the rest.

Chains of the proteins cited; added tags and fusions are not shown.
UniProt P21453, whole entry: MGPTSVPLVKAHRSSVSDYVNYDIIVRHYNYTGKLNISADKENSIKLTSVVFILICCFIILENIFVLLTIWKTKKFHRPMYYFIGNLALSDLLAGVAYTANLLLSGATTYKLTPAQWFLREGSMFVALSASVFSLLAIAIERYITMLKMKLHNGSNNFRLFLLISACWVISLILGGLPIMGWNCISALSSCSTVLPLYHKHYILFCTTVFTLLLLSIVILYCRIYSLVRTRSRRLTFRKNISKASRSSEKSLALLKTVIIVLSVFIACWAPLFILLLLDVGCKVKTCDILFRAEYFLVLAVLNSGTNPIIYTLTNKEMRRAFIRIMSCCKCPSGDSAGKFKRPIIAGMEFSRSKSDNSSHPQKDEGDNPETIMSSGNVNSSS

Each compound was assayed against Sphingosine 1-phosphate receptor 1 (Homo sapiens) (UniProt P21453) (assay: activates the human S1P1 receptor (AID 1044)). Settings: S1P1 agonist cell-based reporter assay; at 4.5 µM; stronger effect = higher value.

Row | Structure (SMILES) | activation
1 | Cc1ccccc1NC1CC(C)(C)NC(C)(C)C1 | inactive: 3.32%
